The text below walks through data of patent EP1717234A1, “Phenoxypropylpiperidines and -pyrrolidines and their use as histamine H3-receptor ligands” (BIOPROJET, priority 2005, dated 2006).

Sequences of proteins named here, by UniProt entry; tags and fusion partners are left off.
UniProt Q9Y5N1, whole entry: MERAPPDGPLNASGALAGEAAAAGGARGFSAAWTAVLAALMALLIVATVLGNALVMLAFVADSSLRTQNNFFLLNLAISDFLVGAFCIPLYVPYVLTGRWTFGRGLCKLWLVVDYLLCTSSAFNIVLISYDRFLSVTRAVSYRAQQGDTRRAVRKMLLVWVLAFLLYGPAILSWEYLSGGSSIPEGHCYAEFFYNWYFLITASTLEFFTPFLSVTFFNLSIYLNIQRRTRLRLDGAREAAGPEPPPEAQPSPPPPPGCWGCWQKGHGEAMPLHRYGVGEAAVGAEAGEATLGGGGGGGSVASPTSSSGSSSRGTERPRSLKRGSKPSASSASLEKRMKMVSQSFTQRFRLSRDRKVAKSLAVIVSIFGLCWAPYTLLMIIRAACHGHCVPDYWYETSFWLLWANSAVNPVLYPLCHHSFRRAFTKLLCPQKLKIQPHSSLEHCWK
UniProt P08684, whole entry: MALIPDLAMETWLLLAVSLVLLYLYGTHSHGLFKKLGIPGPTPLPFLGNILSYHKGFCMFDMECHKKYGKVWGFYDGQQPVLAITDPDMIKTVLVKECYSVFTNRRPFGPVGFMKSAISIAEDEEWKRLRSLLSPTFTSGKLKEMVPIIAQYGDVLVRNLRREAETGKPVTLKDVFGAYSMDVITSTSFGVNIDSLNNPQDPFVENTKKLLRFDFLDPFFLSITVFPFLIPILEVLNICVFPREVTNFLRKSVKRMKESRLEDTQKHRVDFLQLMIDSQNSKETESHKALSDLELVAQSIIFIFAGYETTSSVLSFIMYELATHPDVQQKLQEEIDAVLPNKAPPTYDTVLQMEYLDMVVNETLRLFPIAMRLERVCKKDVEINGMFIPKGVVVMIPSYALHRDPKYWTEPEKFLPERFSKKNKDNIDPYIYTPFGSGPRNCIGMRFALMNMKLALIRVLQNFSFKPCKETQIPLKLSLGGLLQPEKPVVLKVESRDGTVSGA
UniProt P10635, whole entry: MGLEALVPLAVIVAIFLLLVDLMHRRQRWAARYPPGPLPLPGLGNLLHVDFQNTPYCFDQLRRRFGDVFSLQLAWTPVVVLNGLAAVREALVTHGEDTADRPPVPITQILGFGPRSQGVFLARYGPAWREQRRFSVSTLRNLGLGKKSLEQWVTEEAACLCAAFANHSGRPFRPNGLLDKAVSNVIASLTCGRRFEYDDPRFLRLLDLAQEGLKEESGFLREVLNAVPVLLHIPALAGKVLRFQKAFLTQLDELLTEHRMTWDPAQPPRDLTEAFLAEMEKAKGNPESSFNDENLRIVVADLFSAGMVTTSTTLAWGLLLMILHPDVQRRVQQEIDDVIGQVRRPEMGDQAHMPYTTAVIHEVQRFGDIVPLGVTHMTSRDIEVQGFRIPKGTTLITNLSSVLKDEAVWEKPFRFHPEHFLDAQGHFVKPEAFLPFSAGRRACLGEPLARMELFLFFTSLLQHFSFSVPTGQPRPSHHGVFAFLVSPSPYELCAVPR

Data set [1] concerns the target human histamine H3 receptors (Homo sapiens, UniProt Q9Y5N1). The data set is described as follows: H3 binding ([125I]iodoproxyfan, membranes). To be noted: comparative compounds of WO 00/06254.
For a further data set, the target named is CYP3A4 (Homo sapiens, UniProt P08684). Description: Cytochrome inhibition, fluorometric microtiter plate assay (substrate BFC). In kind it is biochemical. Conditions: read-out: CYP3A4 (IC50, concentrations for 50% inhibition); comparative compounds of WO 00/06254.
Another data set addresses CYP2D6 (Homo sapiens, UniProt P10635). The data set is described as follows: Cytochrome inhibition, fluorometric microtiter plate assay (substrate AMMC). In kind it is biochemical. Conditions: read-out: CYP2D6 (IC50, concentrations for 50% inhibition); comparative compounds of WO 00/06254.

Broadly, the Ki is a measure of affinity in units of concentration, obtained from inhibition or displacement. High values mean lower affinity, low ones higher affinity. On to `CC(C)c1ccc(OCCCN2CCCCC2)cc1`, for which, in data set [1], the Ki came to 14 nM. Besides, the IC50 was > 1000 nM at CYP3A4 and 1000 nM at CYP2D6.
In turn, `CCCC(=O)c1ccc(OCCCN2CCCCC2)cc1` returned a Ki in data set [1] of 4.5 nM. Further, the IC50 on CYP3A4 and at CYP2D6 was 1000 nM each time.
